This series is described as follows: Relative humidity stability at ambient temperature, analyzed by XRPD. It is filed as physicochemical.

Turning to `NC(=O)N1c2ccccc2C=Cc2ccccc21` [carbamazepine], the “Conversion to hydrate at 75% RH” value (75% RH, up to four weeks) is reported as “no conversion is observed”. For the same compound, under “94% RH”, the “Time of partial conversion to hydrate at 94% RH” value was “between three days and one week”. In addition, the “Results (form by XRPD)” value is on record as “carbamazepine (Form III) + small amount of” (94% RH, 1 week (7 days)); “carbamazepine dihydrate + small amount of” (94% RH, 4 weeks); “carbamazepine dihydrate + small amount of” (98% RH, 1 week); “carbamazepine (Form III) + small amount of” (98% RH, 1 day); “carbamazepine (Form III) + small amount of” (98% RH, 3 days). In addition, under “98% RH”, the “Time of conversion to hydrate at 98% RH” value is on record as “less than one day”.
